The list is not random: actives were taken first. Their share in the collection is about 2.2%.
Nrf2 block – inhibitors of Nrf2 signaling; A549 ARE-Fluc reporter, luciferase luminescence, 18-24 h; Potency, µM (titrated, usually from 46 µM), inactives show top-dose activity change, negative = inhibition, most hits filed as inhibitors; actives 2.1% (n = 360,000); AID 504444; further: potency means the concentration at half of the fitted maximal effect; on the % scale 0 is the no-effect control and ±100 the full control effect; nearly all actives have a fitted effect of over 60% in size
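A549 ARE_Fluc cells (5000/well, 5% FBS OPTI-MEM) pre-incubated 2 h, then treated with compounds 18-24 h at 37C/5% CO2 in concentration-response. CellTiter-Fluor viability read first; BugLite luciferase luminescence after 15 min at room temperature gives Nrf2 activity.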
Nrf2 ARE act – activates Nrf2 signaling. AREc32 ARE-luciferase reporter (MCF7-derived line), luminescence, 24 h. Potency, µM (doses to about 46.1 µM), inactives show at the top dose activation, most hits filed as activators. actives 0.31% (n = 410,000); further: potency means the concentration at half of the fitted maximal effect; % of control where 0% means no effect; nearly all actives have a fitted effect of over 65% in size
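For detection, Steady-Glo was added and plates sat 30 min at RT; before that, AREc32_Fluc cells grown overnight in OPTI-MEM/5% FBS had been treated with 23 nL compound for 24 hr at 37 deg C.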
miR-21 reporter – miR-21 reporter, rising signal; HeLa miR-21 FLuc reporter, luciferase, 48 h; Potency, µM (top dose mostly 38.3 µM), without a hit: at the top dose reporter change, positive = more light; 340,000 tested, under 10 active; active = well fitted rising curve with a large enough effect; inconclusive = small, poorly fitted or top-dose-only effect; inactive = no such curve, though single readings can be large or run the other way;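 note: % of control where 0% means no effect; miR-21 action dims this reporter so a rising signal means less miR-21 action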
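HeLa cells endogenously expressing miR-21, stably carrying CMV-driven firefly luciferase with a downstream miR-21 binding site, 2000 cells/well. Titrations up to approximately 40 uM, 48 hours; luciferase luminescence read.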
PI4K2A block – blocks human PI4K2A kinase activity; purified PI4K2A, ADP-Glo luminescence, 1 h; active compounds read low; activity change, negative = inhibition, % at 76.9 µM; actives 0.13% (n = 420,000); in the data active means activity change below about -50%; inconclusive means mostly about -30% to -49%;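 further: -100% = wells without enzyme as full effect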
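PI4K2A activity was measured by ADP-Glo luminescence: enzyme (4 ug/mL stock) and phosphatidylinositol (1.2 mM stock) in Tris pH 7.5/MgCl2/EGTA/Triton X-100 buffer were reacted with ATP (300 microM stock) for one hour at ambient temperature.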
A549 tox – counter-screen for Nrf2 inhibitors: cytotoxicity in A549 cells; A549 ARE-Fluc cells, CellTiter-Fluor viability, 18-24 h; Potency, µM (top dose mostly 46 µM), for the others: at the top dose activity change, negative = cytotoxicity, actives largely listed as inhibitors; actives 0.16% (n = 390,000); further: potency means the concentration at half of the fitted maximal effect; on the % scale 0 is the no-effect control and ±100 the full control effect
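A549 ARE-Fluc cells in 5% FBS OPTI-MEM, 5000 cells/well, rested 2 h then exposed to compounds in concentration-response for 18-24 h at 37 °C. Viability by CellTiter-Fluor fluorescence (Ex 405/Em 525) after 30 min; luciferase luminescence (BugLite, 15 min, RT) read afterwards.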
GALK inhibitor – galactokinase (human) inhibition; P51570; Purified GALK, Kinase-Glo residual ATP luminescence; Potency, µM (titrated, usually from 57.5 µM), without a hit: at the highest dose activity change, negative = inhibition, usual class: inhibitors; actives 0.007% (n = 270,000); further: potency means the concentration at half of the fitted maximal effect; on the % scale 0 is the no-effect control and ±100 the full control effect
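Kinase-Glo Plus luminescence measured ATP left after a 1 h room-temperature reaction. The reaction used 5 nM GALK, 100 uM galactose and 35 uM ATP at pH 8.0 (20 mM HEPES, 5 mM MgCl2, 60 mM NaCl, 1 mM DTT, 0.01% BSA).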
The depositor's hits bear a star; ? = inconclusive; · = no result given. Unless noted, the call rests on the fitted dose curve; in most records, active means well fitted curve in the direction sought with a large enough effect; inconclusive means small, poorly fitted or top-dose-only effect, or another doubt; inactive means no such curve, though single readings can be large; an effect the other way counts as inactive or inconclusive.

The line under a structure holds: Nrf2 ARE act	GALK inhibitor	A549 tox	PI4K2A block	Nrf2 block	miR-21 reporter
1) Cc1cc(S(=O)(=O)Nc2cc(C)c(O)c(C)c2)c(C)s1
    ?	-4%	-6%	0	10µM*	0%
2) CC1=NN(c2nc3ccccc3[nH]2)C(=O)C1Cc1ccccc1 (stereo unspecified)
    7%	-2%	-27%	-9	23µM*	?
3) CC1=NN(c2nc3ccccc3[nH]2)C(=O)/C1=C/N(C)C
    0%	12%	-3%	?	18µM*	23%
4) Cc1ccc(C)c(N2CCN(C(=O)CCCN3C(=S)NC(C)(C)CC3C)CC2)c1 (stereo unspecified)
    -1%	1%	-5%	5	16µM*	21%
5) CC(=O)Nc1cccc(Oc2ncnc3scc(-c4ccc(C)cc4)c23)c1
    0%	-1%	?	5	18µM*	19%
6) COc1ccc(S[C@]2(C(=O)N3CCOCC3)CC(=O)N(C(=O)CCc3ccccc3)[C@@H]2c2ccc(OC)cc2)cc1
    ·	·	·	-1	·	·
7) CC(=O)c1sc2nc(-c3cccs3)cc(C(F)(F)F)c2c1N
    6.3µM*	1%	12%	3	10%	-4%
8) CNS(=O)(=O)c1ccc2nc(NC(=O)/C=C/c3ccco3)sc2c1
    ?	-1%	-8%	-62*	4%	-5%
9) CCc1nnc(NC(=O)/C=C/c2ccco2)s1
    4.5µM*	0%	?	4	20%	-48%
10) N#Cc1c(Cl)cccc1Oc1ccc([S+](=O)([O-])N2CCN([S+](=O)([O-])c3c(F)cccc3F)CC2)cc1
    ·	·	1%	·	4%	·
11) COP(=O)(O)C(COCCC(CC(C)C)NC(=O)OCc1ccccc1[N+](=O)[O-])NC(=O)OCc1ccccc1 (stereo unspecified)
    ·	·	·	-1	·	·
12) NNC(=O)c1cc2c(N3CCC(Cc4ccccc4)CC3)ncnc2s1
    0%	-2%	-12%	6	26µM*	12%
13) Nc1nc(-c2ccccc2)c(N=Nc2cccc3ccccc23)s1
    24%	·	16µM*	-15	-8%	3%
14) Nc1nc(-c2ccccc2)c(N=Nc2ccccc2Cl)s1
    7%	2%	?	-10	1%	0%
15) COc1cc(NS(=O)(=O)c2ccc([N+](=O)[O-])cc2)c2ncccc2c1
    ·	·	-19%	·	?	·
16) O=C/C(=C\Nc1ccccn1)c1nc2ccccc2o1
    13µM*	0%	6%	-2	?	-19%
17) O=C/C(=C\Nc1ccccn1)c1nc2cc(Cl)ccc2o1
    23%	0%	3%	3	26%	-21%
18) CC(C)[C@H](NC(=O)[C@@H]1CCCN1)C(=O)N1CCC2CCN(S(=O)(=O)c3ccccc3)CC21 (stereo partly specified)
    ·	·	·	-2	·	·
19) Cc1cccc(S(=O)(=O)C(C#N)c2nc3ccccc3nc2N2CC(C)OC(C)C2)c1 (stereo unspecified)
    0%	0%	-23%	-2	16µM*	-10%
20) CC1CCN(C(=O)CN2C(=O)c3cccc4cccc(c34)C2=O)CC1
    11µM*	10%	-2%	-4	2%	-6%
21) CC1CCN(C(=O)CN2C(=O)C(=O)c3ccccc32)CC1
    0%	2%	1%	-6	3%	-3%
22) O=C(COC(=O)c1ccc2ncsc2c1)NC(=O)C1CCCCC1
    ·	·	12%	·	?	·
23) C=CC[n+]1c(-c2ccc(OCC)cc2)csc1NNC(=O)Nc1ccccc1
    13%	0%	-6%	2	15µM*	20%
24) O=C1CSc2ccc(C(=O)N3CCCC(C(=O)N4CCN(c5ccc(F)cc5)CC4)C3)cc2N1 (stereo unspecified)
    ·	·	·	1	·	·
25) Cc1ccccc1Cn1cc(CN2[C@@H](CC(C)C)COc3cccc(F)c3S2(=O)=O)nn1
    ·	·	·	-1	·	·
26) COc1cc(NC(=O)c2cccc(Br)c2)nc(OC)n1
    14µM*	1%	1%	-5	6%	-41%
27) COc1ccccc1C(=O)NNC(=O)c1cccc(Br)c1
    6.3µM*	-4%	16%	3	?	-53%
28) COc1ccccc1C(=O)NNC(=O)c1cccc(Cl)c1
    ?	2%	5%	-5	?	-27%
29) Cn1c(=O)c2cc(S(=O)(=O)N3CCN(Cc4ccccc4)CC3)ccc2n(C)c1=O
    ·	·	·	-1	·	·
30) O=C(O)CCC(=O)Nc1nnc(C(F)(F)F)s1
    0%	-1%	0%	7	·	2%
31) CCC(NC(=O)Nc1nnc(C(F)(F)F)s1)(C(F)(F)F)C(F)(F)F
    0%	-2%	7.3µM*	-6	3.7µM*	30%
32) O=C1c2ccccc2C(=O)N1c1noc2ccccc12
    ·	·	11%	·	?	·
33) CCOC(=O)Cn1cc(CN2C(C(=O)OC)CN(Cc3ccc(Cl)cc3)CCS2(=O)=O)nn1 (stereo unspecified)
    ·	·	·	-12	·	·
34) O=C(Nc1ccc(N2CCN(c3ccc(C(F)(F)F)cn3)CC2)nc1)c1cccs1
    0%	-1%	3%	-6	?	-3%
35) O=C(Nc1ccc(N2CCN(c3ncccc3C(F)(F)F)CC2)nc1)c1cccs1
    -3%	-1%	?	-1	21µM*	?
36) c1ccc(CNCc2nnc(-c3cc4ccccc4[nH]3)s2)cc1
    ·	·	-2%	·	?	·
37) Cc1ccc(NC(=O)CSc2ccccc2NC(=O)c2ccccc2Cl)cc1Cl
    2%	1%	?	0	26µM*	-12%
38) Cc1ccc(NC(=O)CSc2ccccc2NC(=O)c2ccccc2)cc1Cl
    4%	0%	-23%	0	?	-38%
39) O=C1c2ccccc2S(=O)(=O)N1Cc1nnc(-c2ccccc2Br)o1
    4%	-3%	-18%	-3	-29%	-5%
40) O=S1(=O)c2cccc3cccc(c23)N1Cc1nnc(-c2ccccc2Br)o1
    4%	0%	-22%	0	21µM*	-4%
41) N=c1n(CCN2CCOCC2)c2ccccc2n1CC(=O)c1cccc([N+](=O)[O-])c1
    3.2µM*	3%	-2%	-4	1%	4%
42) CCn1c(=N)n(CC(=O)c2cccc([N+](=O)[O-])c2)c2ccccc21
    ?	3%	0%	4	?	-41%
43) Cc1sc(NC(=O)CSc2nc(N)cc(N)n2)c(C#N)c1C
    2%	6%	-7%	-16	21µM*	-10%
44) Cc1sc(NC(=O)CSc2nnc(-c3ccccc3)o2)c(C#N)c1C
    3%	-2%	-11%	-10	?	-25%
45) Cc1cccc(C)c1OCCCCn1c(C2CC(=O)N(c3ccc(F)cc3)C2)nc2ccccc21 (stereo unspecified)
    0%	·	?	-7	21µM*	?

Arranged by heavy-atom count (rising): some entries from above.
The line under a structure holds: Nrf2 ARE act	GALK inhibitor	A549 tox	PI4K2A block	Nrf2 block	miR-21 reporter
39) O=C1c2ccccc2S(=O)(=O)N1Cc1nnc(-c2ccccc2Br)o1
    4%	-3%	-18%	-3	-29%	-5%
41) N=c1n(CCN2CCOCC2)c2ccccc2n1CC(=O)c1cccc([N+](=O)[O-])c1
    3.2µM*	3%	-2%	-4	1%	4%
33) CCOC(=O)Cn1cc(CN2C(C(=O)OC)CN(Cc3ccc(Cl)cc3)CCS2(=O)=O)nn1 (stereo unspecified)
    ·	·	·	-12	·	·

Exported with each value named: 2 of the compounds above
40. O=S1(=O)c2cccc3cccc(c23)N1Cc1nnc(-c2ccccc2Br)o1
  Nrf2 ARE act = 4%
  GALK inhibitor = 0%
  A549 tox = -22%
  PI4K2A block = 0
  Nrf2 block = 21µM*
  miR-21 reporter = -4%

41. N=c1n(CCN2CCOCC2)c2ccccc2n1CC(=O)c1cccc([N+](=O)[O-])c1
  Nrf2 ARE act = 3.2µM*
  GALK inhibitor = 3%
  A549 tox = -2%
  PI4K2A block = -4
  Nrf2 block = 1%
  miR-21 reporter = 4%

Assay outcomes: PubChem, National Center for Advancing Translational Sciences (NCATS)
